Tested on: MDA-MB-231 human breast cells
Assay: Proliferation assay, CellTiter 96 AQueous One Solution (MTS)
Assay type: cell-based
Conditions: MDA-MB-231, 72 h, MDA-MB-231 cells, mean of two separate determinations, ±SD where more than two, read-out: IC50 Antiproliferative activity
Protocol: (§1) The MDA-MB-231 human breast cells were maintained at 37° C. with 5% CO2 in DMEM (Sigma) supplemented with 10% fetal bovine serum (FBS, Hyclone), 50 U/ml penicillin (Gibco), and 50 μg/ml streptomycin (Gibco). […] The relative number of the live cells was determined using the CellTiter® 96 AQueous One Solution Cell Proliferation Assay (Promega). Each condition was performed in triplicate, and data presented represent that obtained from at least two separate experiments.
as §1, with “to date were” for “represent that”, “one determination.” for “at least two separate experiments.”

IC50: 21.8 µM
Structure (SMILES): CCCCCCCCn1cc(CC(N)=O)c2cc(-c3cccc(C)c3)ccc21 [cysmethynil, 2-(1-octyl-5-m-tolyl-1H-indol-3-yl) acetamide, reference compound]

From US8742100B2, “Small molecule inhibitors of isoprenylcysteine carboxyl methyltransferase with potential anticancer activity” (National University of Singapore, priority 2009, dated 2014)
